Here are results for one compound from patent US11135316B2, “Imaging and treatment of pathophysiologic conditions by Cerenkov radiation” (priority 2014, dated 2021).

The test system of data set [1] is U266.
Data set [2] has as its system STGM.

For `O=C[C@H]([18F])[C@@H](O)[C@H](O)[C@H](O)CO` [FDG, 2′-deoxy-2′-(^18F)fluoro-D-glucose], the viable cells in data set [1] and in data set [2] was > 95% throughout.
